We go through 1 molecule from CN107488231A (UNIV SICHUAN, dated 2017).

Chains of the proteins cited; added tags and fusions are not shown. A line that says so, or that is headed by a name, gives the form on record, which may keep a tag or linker. Residues count along the entry.
UniProt P13591, 20-858: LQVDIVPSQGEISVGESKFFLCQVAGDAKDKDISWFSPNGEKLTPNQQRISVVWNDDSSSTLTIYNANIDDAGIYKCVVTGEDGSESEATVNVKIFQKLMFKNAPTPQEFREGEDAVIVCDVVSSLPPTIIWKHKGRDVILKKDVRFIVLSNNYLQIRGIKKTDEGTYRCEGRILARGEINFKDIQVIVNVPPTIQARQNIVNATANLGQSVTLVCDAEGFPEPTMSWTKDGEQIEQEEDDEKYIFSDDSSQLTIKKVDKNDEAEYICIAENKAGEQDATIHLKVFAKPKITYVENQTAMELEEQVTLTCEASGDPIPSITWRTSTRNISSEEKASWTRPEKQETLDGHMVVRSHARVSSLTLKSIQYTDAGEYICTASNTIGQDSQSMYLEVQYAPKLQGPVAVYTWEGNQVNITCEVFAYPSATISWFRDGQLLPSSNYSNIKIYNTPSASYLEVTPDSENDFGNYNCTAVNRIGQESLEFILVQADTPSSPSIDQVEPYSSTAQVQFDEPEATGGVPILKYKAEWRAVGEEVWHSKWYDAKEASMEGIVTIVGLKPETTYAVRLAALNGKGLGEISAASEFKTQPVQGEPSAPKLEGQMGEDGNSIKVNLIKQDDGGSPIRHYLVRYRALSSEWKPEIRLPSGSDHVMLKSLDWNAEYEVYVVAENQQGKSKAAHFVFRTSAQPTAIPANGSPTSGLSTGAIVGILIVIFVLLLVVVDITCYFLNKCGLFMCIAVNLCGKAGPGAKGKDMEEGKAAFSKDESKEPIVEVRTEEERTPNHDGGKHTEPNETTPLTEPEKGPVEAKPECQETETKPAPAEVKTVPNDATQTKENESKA
UniProt P13591, other isoform, or with tags, fused parts or gaps limits assumed: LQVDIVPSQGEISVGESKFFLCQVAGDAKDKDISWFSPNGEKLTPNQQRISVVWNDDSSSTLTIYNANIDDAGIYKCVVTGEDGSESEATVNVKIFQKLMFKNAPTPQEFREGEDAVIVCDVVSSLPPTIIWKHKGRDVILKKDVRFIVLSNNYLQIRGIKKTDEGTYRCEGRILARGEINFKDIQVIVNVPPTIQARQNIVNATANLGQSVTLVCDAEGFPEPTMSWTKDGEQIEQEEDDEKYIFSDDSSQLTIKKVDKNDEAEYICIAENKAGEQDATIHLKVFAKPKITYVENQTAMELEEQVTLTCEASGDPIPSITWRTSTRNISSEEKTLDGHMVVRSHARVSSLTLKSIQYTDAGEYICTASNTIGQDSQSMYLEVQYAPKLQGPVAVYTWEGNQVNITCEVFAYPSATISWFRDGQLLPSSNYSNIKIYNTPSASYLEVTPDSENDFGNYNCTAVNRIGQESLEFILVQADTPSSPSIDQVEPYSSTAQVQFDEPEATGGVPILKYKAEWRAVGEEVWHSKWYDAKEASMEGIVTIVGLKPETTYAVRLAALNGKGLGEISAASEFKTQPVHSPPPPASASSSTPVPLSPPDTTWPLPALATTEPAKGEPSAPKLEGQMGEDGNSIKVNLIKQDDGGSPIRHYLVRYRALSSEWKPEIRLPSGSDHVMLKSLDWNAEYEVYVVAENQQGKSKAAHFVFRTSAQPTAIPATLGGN

The target in assay [1] is CD56 of CD56-positive human small cell lung cancer cell lines (NCI-H526, NCI-H524, NCI-H69, NCI-H446) (human, UniProt P13591 20-858). As to the kind of experiment: cell-based or functional assay.
For assay [2], the target named is T1, Recombinant Human NCAM-1/CD56 120 isoform (human, UniProt P13591-3 20-741, limits assumed).
T1 construct: the result sentence of the same paragraph calls the antigen CD56ECD
As to the kind of experiment: Biacore SPR, antigen amine-coupled to CM5 chip, antibody as analyte, 1:1 model. (In general: Surface plasmon resonance follows binding to a sensor surface in real time, without labels.)

Where only a bound is given, the exact number is not on record here.

One may read the Kd as the concentration at which binding is half-saturated. The term koff denotes the first-order rate constant of dissociation. The term kon denotes the second-order rate constant of association.

B1: 抗CD56抗体Promiximab(普偌米昔) (antibody, V domains shown)
VH: EIQLQQSGPELVKPGASVKVSCKASGYAFTNYNMYWMKQSHGKSLEWIGYIDPYNGGTRYNQKFKGKATLTVDKSSSTAYMHLNSLTSEDSAVYYCAREDSTGYWGQGTTLTVSS
VL: DVLLTQTPLSLPVSLGDQASISCRSSQNILHSNGNTYFEWYLQKPGQSPKLLIYKVSNRFSGVPDRFSGSGSGTDFTLKISRVEAEDLGVYYCFQGSHVPFTFGGGTKLEIKR
With B1, in assay [1], the “IC50, CCK-8抗增殖实验 (NCI-H69)” value was found to be 969 nM and the “IC50, CCK-8抗增殖实验 (NCI-H526)” value stood at 792 nM. Further, in assay [2], the Kd was below 0.78 pM, the koff was below 1e-07 s⁻¹ and the kon was 127000 M⁻¹ s⁻¹.
